US6506766B1 (Abbott Laboratories, priority 1998, dated 2003)
Like-named read-outs stand apart in the source and are kept apart here.

Experiments:
[1] = biological target: T1, human glucocorticoid receptor-α [GRX] isoform (Homo sapiens, UniProt P04150); test: Radioligand binding with human glucocorticoid receptor cytosol ([3H]-dexamethasone competition); conditions: read-out: Ki (nM) GR
T1 construct: host or cells: insect SF21 cells (baculovirus)
T1 sequence (P04150 1-777): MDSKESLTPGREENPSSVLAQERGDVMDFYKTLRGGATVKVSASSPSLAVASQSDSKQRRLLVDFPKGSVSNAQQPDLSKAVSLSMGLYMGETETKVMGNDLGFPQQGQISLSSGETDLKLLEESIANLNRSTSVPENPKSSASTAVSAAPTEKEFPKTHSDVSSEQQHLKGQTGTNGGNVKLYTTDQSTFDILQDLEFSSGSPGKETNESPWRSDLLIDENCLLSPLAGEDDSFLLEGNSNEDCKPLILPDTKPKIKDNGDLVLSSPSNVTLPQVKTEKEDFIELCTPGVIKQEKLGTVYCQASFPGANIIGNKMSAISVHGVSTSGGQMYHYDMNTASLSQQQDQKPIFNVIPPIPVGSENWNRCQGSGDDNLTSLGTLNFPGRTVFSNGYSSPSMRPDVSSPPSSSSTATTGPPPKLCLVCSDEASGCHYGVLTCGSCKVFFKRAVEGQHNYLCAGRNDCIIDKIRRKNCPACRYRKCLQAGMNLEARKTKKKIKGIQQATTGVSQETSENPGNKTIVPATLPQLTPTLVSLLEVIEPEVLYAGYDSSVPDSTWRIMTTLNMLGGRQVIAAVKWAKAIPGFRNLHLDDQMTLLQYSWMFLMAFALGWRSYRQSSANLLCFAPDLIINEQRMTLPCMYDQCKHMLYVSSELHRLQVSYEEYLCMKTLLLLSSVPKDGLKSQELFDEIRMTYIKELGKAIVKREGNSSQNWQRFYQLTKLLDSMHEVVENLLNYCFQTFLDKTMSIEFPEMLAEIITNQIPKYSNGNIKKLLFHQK

[2] = biological target: T2, human progesterone receptor-A [PRA] isoform (Homo sapiens, UniProt P06401); test: Radioligand binding with human progesterone receptor cytosol ([3H]-progesterone competition); conditions: read-out: Ki (nM) PR
T2 construct: host or cells: insect SF21 cells (baculovirus)
T2 sequence (P06401 1-769 isoform P06401-2): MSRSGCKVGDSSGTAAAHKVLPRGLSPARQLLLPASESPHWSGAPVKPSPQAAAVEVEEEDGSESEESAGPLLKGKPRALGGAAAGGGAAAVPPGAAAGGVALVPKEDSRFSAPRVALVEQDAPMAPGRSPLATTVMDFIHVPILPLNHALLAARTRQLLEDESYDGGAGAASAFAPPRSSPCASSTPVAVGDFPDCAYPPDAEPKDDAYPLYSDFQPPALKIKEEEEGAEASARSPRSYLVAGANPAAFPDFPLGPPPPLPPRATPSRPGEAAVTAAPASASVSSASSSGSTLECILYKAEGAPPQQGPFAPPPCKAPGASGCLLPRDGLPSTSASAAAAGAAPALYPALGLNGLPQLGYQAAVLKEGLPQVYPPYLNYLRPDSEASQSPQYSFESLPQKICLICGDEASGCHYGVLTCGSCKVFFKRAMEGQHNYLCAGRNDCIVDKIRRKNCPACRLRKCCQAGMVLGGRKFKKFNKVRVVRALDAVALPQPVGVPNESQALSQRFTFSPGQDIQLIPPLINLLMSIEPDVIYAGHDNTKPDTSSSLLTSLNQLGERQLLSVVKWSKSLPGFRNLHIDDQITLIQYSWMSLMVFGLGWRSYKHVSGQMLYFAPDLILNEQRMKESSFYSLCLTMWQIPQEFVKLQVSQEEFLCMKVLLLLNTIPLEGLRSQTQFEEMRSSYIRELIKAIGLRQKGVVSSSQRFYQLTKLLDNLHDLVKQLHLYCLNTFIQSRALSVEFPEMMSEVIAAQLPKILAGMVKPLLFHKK

[3] = GRX cytosol expressed in insect SF21 cells, [3H]-Dex ~0.9 nM, 4° C. overnight, Ki by Cheng-Prusoff, KL ~1.5 nM
[4] = PRA cytosol expressed in insect SF21 cells, [3H]Prog ~0.8 nM, 4° C. overnight, Ki by Cheng-Prusoff, KL ~4.5 nM

Ki [1, 3] | SMILES | further results
10.5 nM | COc1cccc2c1-c1ccc3c(c1C(=Cc1ccccc1)O2)C(C)=CC(C)(C)N3 (mixture of isomers) [Example 18, 2,5-Dihydro-10-methoxy-2,2,4-trimethyl-5-(phenylmethylene)-1H-[1]benzopyrano[3,4-f]quinoline] | 
0.66 nM | C=CCC1Oc2ccc(OC(=O)CCC(=O)N(C)C)c(Cl)c2-c2ccc3c(c21)C(C)=CC(C)(C)N3 (racemic) [Example 421, (+/−)2,5-Dihydro-9-(4-N,N-dimethylamino-4-oxo-butanoyloxy)-10-chloro-2,2,4-trimethyl-5-allyl-1H-[1]benzopyrano[3,4-f]quinoline] | 
2.2 nM | CCC1([C@@H]2Oc3ccc(O)c(OC)c3-c3ccc4c(c32)C(C)=CC(C)(C)N4)CC=CCC1 (single isomer, unassigned; (-)) [Example 263] | 
15 nM | COc1cccc2c1-c1ccc3c(c1C(CC(C)=O)O2)C(C)=CC(C)(C)N3 (stereo not drawn) [Example 45, 1-(2,5-Dihydro-10-methoxy-2,2,4-trimethyl-1H-[1]benzopyrano[3,4-f]quinolin-5-yl)-2-propanone] | 
15 nM | COc1cccc2c1-c1ccc3c(c1C(CCCO)O2)C(C)=CC(C)(C)N3 (stereo not drawn) [Example 69, 2,5-Dihydro-10-methoxy-2,2,4-trimethyl-1H-[1]benzopyrano[3,4-f]quinoline-5-propanol] | 
12 nM | C#CCOc1cccc(C2Oc3cccc(OC)c3-c3ccc4c(c32)C(C)=CC(C)(C)N4)c1 (stereo not drawn) [Example 92, 2,5-Dihydro-10-methoxy-2,2,4-trimethyl-5-[3-(2-propynyloxy)phenyl]-1H-[1]benzopyrano[3,4-f]quinoline] | 
12 nM | CNc1cc(C)cc(C2Oc3cccc(OC)c3-c3ccc4c(c32)C(C)=CC(C)(C)N4)c1 (stereo not drawn) [Example 114, 3-(2,5-Dihydro-10-methoxy-2,2,4-trimethyl-1H-[1]benzopyrano[3,4-f]quinolin-5-methyl)-5,N-dimethylbenzenamine] | 
12 nM | C=CCNc1cccc(C2Oc3cccc(OC)c3-c3ccc4c(c32)C(C)=CC(C)(C)N4)c1 (stereo not drawn) [Example 117, 3-(2,5-Dihydro-10-methoxy-2,2,4-trimethyl-1H-[1]benzopyrano[3,4-f]quinolin-5-yl)-N-(2-propenyl)benzenamine] | 
15 nM | C=C(Br)CC1Oc2cccc(OC)c2-c2ccc3c(c21)C(C)=CC(C)(C)N3 (stereo not drawn) [Example 147, 2,5-Dihydro-10-methoxy-5-(2-bromo-3-propenyl)-2,2,4-trimethyl-1H-[1]benzopyrano[3,4-f]quinoline] | 
32 nM | C=C(CC1Oc2cccc(OC)c2-c2ccc3c(c21)C(C)=CC(C)(C)N3)C(=O)OC (stereo not drawn) [Example 173, 2,5-Dihydro-10-methoxy-5-(2-carbomethoxy-3-propenyl)-2,2,4-trimethyl-1H-[1]benzopyrano[3,4-f]quinoline] | 
6.4 nM | COc1cccc2c1-c1ccc3c(c1C(CC=C1CCCCCC1)O2)C(C)=CC(C)(C)N3 (stereo not drawn) [Example 189, 2,5-Dihydro-10-methoxy-5-(2-cycloheptylidenylethyl)-2,2,4-trimethyl-1H-[1]benzopyrano[3,4-f]quinoline] | 
0.66 nM | CC1=CC(C)(C)Nc2ccc3c(c21)[C@H]([C@@H]1C=CCC1)Oc1ccc(O)c(Cl)c1-3 [Example 221, (−)2,5(S)-Dihydro-9-hydroxy-10-chloro-2,2,4-trimethyl-5-(3S-cyclopentenyl)-1H-[1]benzopyrano[3,4-f]quinoline] | 
8.4 nM | CC1=CC(C)(C)Nc2ccc3c(c21)C(c1ccccc1)Oc1ccc2c(c1-3)OCO2 (stereo not drawn) [Example 227, 9-10-Methylenedioxy-5-phenyl-2,2,4-trimethyl-1H-2,5-dihydro-[1]benzopyrano[3,4-f]quinoline] | 
 | C=CCC1Oc2ccc(F)c(OC)c2-c2ccc3c(c21)C(C)=CC(C)(C)N3 (stereo not drawn) [Example 234, 10-Methoxy-9-fluoro-5-(3-propenyl)-2,2,4-trimethyl-1H-2,5-dihydro-[1]benzopyrano[3,4-f]quinoline] | Ki [1]: 3.8 nM; Ki [2]: 202 nM
2.2 nM | COc1c(O)ccc2c1-c1ccc3c(c1C(c1ccc(F)c(F)c1)O2)C(C)=CC(C)(C)N3 (stereo not drawn) [Example 254, 2,5-Dihydro-9-hydroxy-10-methoxy-2,2,4-trimethyl-5-(3,4-difluorophenyl)-1H-[1]benzopyrano[3,4-f]quinoline] | 
 | COc1c(O)ccc2c1-c1ccc3c(c1[C@@H](C1CCCC1)O2)C(C)=CC(C)(C)N3 [Example 265, (+)(R)5-Cyclopentyl-2,5-dihydro-9-hydroxy-10-methoxy-2,2,4-trimethyl-1H-[1]benzopyrano[3,4-f]quinoline] | Ki [2, 4]: 1500 nM
0.69 nM | COc1c(O)ccc2c1-c1ccc3c(c1C(c1cccs1)O2)C(C)=CC(C)(C)N3 (stereo not drawn) [Example 274, 2,5-Dihydro-9-hydroxy-10-methoxy-2,2,4-trimethyl-5-(2-thienyl)-1H-[1]benzopyrano[3,4-f]quinoline] | 
12 nM | C=CCOc1ccc2c(c1OC)-c1ccc3c(c1C(CC=C)O2)C(C)=CC(C)(C)N3 (stereo not drawn) [Example 293, 10-Methoxy-9-(3-propenyloxy)-5-(3-propenyl)-2,2,4-trimethyl-1H-2,5-dihydro[1]benzopyrano[3,4-f]quinoline] | 
2.2 nM | C=CCC1Oc2cccc(CO)c2-c2ccc3c(c21)C(C)=CC(C)(C)N3 (stereo not drawn) [Example 329, 2,5-Dihydro-10-(2-hydroxymethyl)-5-(3-propenyl)-2,2,4-trimethyl-1H-[1]benzopyrano[3,4-f]quinoline] | 
2.2 nM | C=CCC1Oc2cccc(C=O)c2-c2ccc3c(c21)C(C)=CC(C)(C)N3 (stereo not drawn) [Example 330, 2,5-Dihydro-10-formyl-5-(3-propenyl)-2,2,4-trimethyl-1H-[1]benzopyrano[3,4-f]quinoline] | 
2.2 nM | COc1c(O)ccc2c1-c1ccc3c(c1/C(=C/c1ccccc1)O2)C(C)=CC(C)(C)N3 [Example 365, Z-5-(Benzylidenyl)-9-hydroxy-10-methoxy-2,2,4-trimethyl-1H-2,5-dihydro] | 
2.2 nM | CC1=CC(C)(C)Nc2ccc3c(c21)/C(=C/c1cccc(F)c1)Oc1ccc(O)c(Cl)c1-3 [Example 367, Z-5-(3-Fluorobenzylidenyl)-10-chloro-9-hydroxy-2,2,4-trimethyl-2,5-dihydro-1H-[1]benzopyrano[3,4-f]quinoline] | 
2.2 nM | COc1c(O)ccc2c1-c1ccc3c(c1C(Cc1cc(F)cc(F)c1)O2)C(C)=CC(C)(C)N3 (stereo not drawn) [Example 382, 2,5-Dihydro-9-hydroxy-10-methoxy-2,2,4-trimethyl-5-(3-5-difluorophenylmethyl)-1H-[1]benzopyrano[3,4-f]quinoline] | 
 | COc1cccc2c1-c1ccc3c(c1[C@H]([C@@H]1C=CCCC1)O2)C(C)=CC(C)(C)N3 [Example 391, (−)(5S,3′S)2,5-Dihydro-10-methoxy-2,2,4-trimethyl-5-(cyclohexen-3-yl)-1H-[1]benzopyrano[3,4-f]quinoline] | Ki [2, 4]: 1090 nM

SMILES | Ki [1, 3] | further results
C=CCC1Oc2cccc(Cl)c2-c2ccc3c(c21)C(C)=CC(C)(C)N3 (stereo not drawn) [Example 309, 10-Chloro-5-(3-propenyl)-2,2,4-trimethyl-2,5-dihydro-1H-[1]benzopyrano[3,4-f]quinoline] | 1.9 nM | 
COC(=O)CN(C)C(=O)Oc1cccc(C2Oc3cccc(OC)c3-c3ccc4c(c32)C(C)=CC(C)(C)N4)c1 (stereo not drawn) [Example 311, 2,5-Dihydro-10-methoxy-5-(3-(N-methyl-N-(carbomethoxymethyl)aminocarbonyloxy)phenyl)-2,2,4-trimethyl-1H-[1]benzopyrano[3,4-f]quinoline] | 15 nM | 
